Compounds with a hit are over-represented: about 2.1% of the library has one in this group of screens.
miR-122 sensor – inhibitors of miR-122 in Huh7 cells; Huh7 miR-122 Renilla luciferase sensor, 48 h; neutral wells = 0, positive control = 100; activation (reporter increase), % at 12.5 µM; hit rate 0.3% among 340,000; AID 602342;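 active = mean replicate activation score at least 90 and every replicate individually at or above 90; inconclusive = only one of the two criteria met; inactive = neither criterion met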;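 also: higher luciferase means less miR-122 activity so hits act as miR-122 inhibitors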
Wnt bcat act – activates Wnt/beta-catenin signaling in a reporter cell assay. activator, plate reader. activation, % at 9.35 µM. hit rate 1.2% among 300,000. AID 743398; in the data active = activation above about 30%, passing the limit was not always enough; inconclusive = no clear call, values can overlap the other calls;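 also: 0% = neutral control wells and 100% = positive control wells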
TRPM1 prom inh – inhibitors of MITF-driven TRPM1 promoter in melanoma cells | inhibition, % at 12.5 µM | hit rate 0.83% among 330,000 | SK-MEL-5 TRPM1 promoter luciferase, 24 h | AID 488899;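 active = mean inhibition across replicates of 60% or more, whatever share of single replicates reaches that level; inconclusive = some that reach 60%, reason not given; inactive = mean inhibition across replicates below 60%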
MITF TRPM1 HTS – activators of MITF-driven TRPM1 promoter activity in SK-MEL-5 cells | hit rate 0.75% among 300,000 | SK-MEL-5 TRPM1-promoter luciferase, 24 h; % of positive control, neutral wells = 0 | activation, % at 12.5 µM;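 active = mean activation of at least 80% with every replicate also reaching 80%; inconclusive = mean reaches 80% but some replicate falls short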;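 also: 0% = neutral control wells and 100% = parthenolide positive control wells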
Yeast UUG start – modulators of start codon recognition fidelity in yeast; AID 602363; activity score, % at 18.7 µM; S. cerevisiae UUG-firefly luciferase reporter, luminescence/redox ratio; actives 0.13% (n = 350,000);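 active = replicate mean at a twofold rise or more, about +100% in these data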;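 note: firefly luciferase made from a UUG start codon reports start codon fidelity; reporter light over untreated wells divided by growth signal over untreated wells; some hits fall short of that in this replicate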
PGC1a acetyl inh – modulators of PGC1a acetylation; U2OS PGC1a acetylation, AlphaScreen anti-acetyl-lysine; with virally co-expressed GCN5 acetyltransferase; inhibition, % at 15.6 µM; hit rate 0.17% among 350,000;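 active = every replicate shows inhibition of at least 40%; inconclusive = mean inhibition at least 40% but some replicate below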;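 also: 0% = neutral control wells and 100% = positive control wells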
* marks the source's active call; other numbers are inactive results; ? = inconclusive; / = no result given; [ ] = dose if it differs, or a comment.

SMILES	miR-122 sensor	Wnt bcat act	TRPM1 prom inh	MITF TRPM1 HTS	Yeast UUG start	PGC1a acetyl inh
C/C(=C\c1ccccc1)C(=O)NCc1ccco1	/	32*	-25	31	/	/
C/C(=C\c1ccccc1)C(=O)NCCc1ccccc1	/	61*	-47	50	/	/
C[C@@H]1CN([C@H](C)CO)C(=O)c2cc(NC(=O)C3CCCCC3)ccc2O[C@H]1CN(C)C(=O)Nc1ccc(F)cc1	-8[16.7 µM]	/	/	/	-3	/
CN(C)C(=O)C[C@H]1CC[C@@H]2[C@H](COC[C@@H](O)CN2CC2CCCCC2)O1	2[16.7 µM]	/	/	/	-8	-2
O=C(Cn1nc(CNc2ccc(Cl)cc2)[n+]2c1CCCCC2)c1ccccc1	6	-1	16	-14	-4	/
Cc1ccc(C(C)C)c(OCc2nn(CC(=O)c3ccc(Cl)cc3)c3[n+]2CCCCC3)c1	/	-6	67*	-66	/	-1
CNC(=O)NC(=O)C(C)OC(=O)c1ccc(Cl)c(S(=O)(=O)Nc2ccc(F)cc2)c1 (stereo not given)	215*	-5	0	-1	-10	-11
COc1ccc(NS(=O)(=O)c2cc(C(=O)OC(C)C(=O)N3CCOCC3)ccc2Cl)cc1 (stereo not given)	/	-4	-6	7	/	/
O=c1c2c(nc3cc(-c4ccc(Br)cc4)[nH]n13)CCCC2	8	14	-105	109*	-17	0
O=c1c2c(nc3cc(-c4ccccc4)[nH]n13)CCC2	9	/	-16	15	-12	-1
CC=Cc1ccc2n(c1=O)C[C@@H]1[C@@H](CO)[C@H](C(=O)NCCC)N(C(=O)c3cccnc3)[C@H]21 (mixture of isomers)	/	/	/	/	/	5
CO[C@@H]1CN(C)C(=O)c2cc(NC(=O)C3CCC3)ccc2OC[C@@H](C)N(Cc2nccs2)C[C@@H]1C	7[16.7 µM]	/	/	/	-3	/
COc1cccc(F)c1C(C[N+](=O)[O-])c1c(N)n(C)c(=O)n(C)c1=O (stereo not given)	50	6	67*	/	-32	7
COc1cc(C(C[N+](=O)[O-])c2c(N)n(C)c(=O)n(C)c2=O)ccc1O (stereo not given)	/	1	6	-7	/	-36
Cc1oc(-c2ccccc2F)nc1CS(=O)CC(=O)NCc1ccc2c(c1)OCO2 (stereo not given)	6	43*	/	/	-11	-14
CO[C@@H]1CN(C)C(=O)c2cc(NC(=O)c3cccc(F)c3)ccc2OC[C@H](C)N(CC2CC2)C[C@@H]1C	/	/	/	/	1	6
C[C@@H]1CN([C@@H](C)CO)C(=O)c2cc(-c3ccccc3)cnc2O[C@@H]1CN(C)C(=O)Nc1ccccc1	-5[16.7 µM]	/	/	/	4	7
C=CCN(C(=O)c1oc2c(Cl)cc(C)cc2c1C)C1CCS(=O)(=O)C1 (stereo not given)	-3	29	-106	111*	-20	5
CCOc1cccc2cc(-c3csc(NC(=O)CCC(=O)NCCN4CCCCC4C)n3)c(=O)oc12 (stereo not given)	1	-1	-105	110*	-18	-10
CCOc1cccc2cc(-c3csc(NC(=O)CCC(=O)N4CCC(C)CC4)n3)c(=O)oc12	-1	/	33	-34	-6	-10
Oc1cccc2ccc(Nc3ccccn3)nc12	4	/	86*	/	-41	/
Cc1cc(NC(=O)CSc2nc3ccccc3cc2C#N)no1	-3	9	-54	60	-2	/
Cc1cc(NC(=O)CSc2nc3c(cc2C#N)CCC3)no1	-3	34*	-57	67	2	-9
Cc1cc(NC(=O)CSc2nc3c(cc2C#N)CCCC3)no1	/	41*	-66	66	/	/
O=C(C[C@H]1CC[C@@H](NC(=O)NC2CCCCC2)[C@H](CO)O1)NCc1ccc(Cl)cc1	/	/	/	/	2	-2

Another view of part of the listing above:
Molecule: C/C(=C\c1ccccc1)C(=O)NCc1ccco1
  miR-122 sensor = /
  Wnt bcat act = 32*
  TRPM1 prom inh = -25
  MITF TRPM1 HTS = 31
  Yeast UUG start = /
  PGC1a acetyl inh = /
Molecule: C/C(=C\c1ccccc1)C(=O)NCCc1ccccc1
  miR-122 sensor = /
  Wnt bcat act = 61*
  TRPM1 prom inh = -47
  MITF TRPM1 HTS = 50
  Yeast UUG start = /
  PGC1a acetyl inh = /
Molecule: C[C@@H]1CN([C@H](C)CO)C(=O)c2cc(NC(=O)C3CCCCC3)ccc2O[C@H]1CN(C)C(=O)Nc1ccc(F)cc1
  miR-122 sensor = -8[16.7 µM]
  Wnt bcat act = /
  TRPM1 prom inh = /
  MITF TRPM1 HTS = /
  Yeast UUG start = -3
  PGC1a acetyl inh = /
Molecule: CN(C)C(=O)C[C@H]1CC[C@@H]2[C@H](COC[C@@H](O)CN2CC2CCCCC2)O1
  miR-122 sensor = 2[16.7 µM]
  Wnt bcat act = /
  TRPM1 prom inh = /
  MITF TRPM1 HTS = /
  Yeast UUG start = -8
  PGC1a acetyl inh = -2

(cont.)
SMILES	miR-122 sensor	Wnt bcat act	TRPM1 prom inh	MITF TRPM1 HTS	Yeast UUG start	PGC1a acetyl inh
COc1ccc(Cc2nc3ccc(C(=O)NCc4cc(C)no4)cc3o2)cc1	-6	7	-85	91*	-15	2
COC(=O)CCNC(=O)c1ccc2nc(Cc3ccc(OC)cc3)oc2c1	5	6	-5	4	5	5
COc1ccc(Cc2nc3ccc(C(=O)NCC(C)(C)OC)cc3o2)cc1	-6	8	-98	104*	-10	7
CN(C)C(=O)[C@H]1[C@H](CO)[C@H]2Cn3c(cccc3=O)[C@H]2N1C(=O)C1CCCC1	/	/	/	/	/	2
C[C@@H]1CN([C@@H](C)CO)C(=O)c2cc(NS(=O)(=O)c3cn(C)cn3)ccc2O[C@H]1CN(C)C	7[16.7 µM]	/	/	/	-2	4
COCC(=O)Nc1ccc2c(c1)[C@H]1C[C@H](CC(=O)N3CCN(C)CC3)O[C@@H](CO)[C@H]1O2	1[16.7 µM]	/	/	/	-9	5
O=C(CC(=O)c1ccccc1)Nc1ccccc1	11	34*	-67	/	-21	1
O=C(CCCCCCC(=O)Nc1ccccc1)NO	232*	245*	84*	-84	-13	?
CC(=O)Nc1cccc(NC(=O)CCCC(=O)O)c1	0	40*	-3	3	0	-19
COc1cccc(NC(=O)Cc2ccccc2)c1	-3	?	-70	69	4	-5
O=C(O)CC(=O)Nc1ccccc1	-4	/	8	-7	-6	2
COc1cccc(NC(=O)CC(=O)c2ccccc2)c1	15	33*	-82	80	-5	22
CC(=O)Nc1ccc2c(c1)C(=O)N(C)[C@@H]1CC[C@H](CC(=O)NCc3ccc(F)cc3)O[C@H]1CO2	3[16.7 µM]	/	/	/	0	-12
C[C@H]1CN([C@@H](C)CO)C(=O)Cc2cc(NC(=O)Cc3ccccc3)ccc2O[C@H]1CN(C)C	-6[16.7 µM]	/	/	/	-9	-2
C[C@H]1CCCCO[C@@H](CN(C)Cc2ccncc2)[C@@H](C)CN([C@@H](C)CO)C(=O)c2cc(NC(=O)CCC(F)(F)F)ccc2O1	2[16.7 µM]	/	/	/	-10	8
C[C@H]1CN([C@@H](C)CO)C(=O)Cc2cc(NC(=O)Nc3ccc(F)cc3)ccc2O[C@@H]1CN(C)S(=O)(=O)c1ccccc1	-1[16.7 µM]	/	/	/	5	0
CNC[C@H]1Oc2c(NC(=O)Nc3ccc(F)cc3)cccc2C(=O)N([C@H](C)CO)C[C@H]1C	7[16.7 µM]	/	/	/	-4	1
COCC(=O)Nc1c(C(=O)Nc2cccc(OC)c2)oc2ccccc12	-3	?	-102	97*	-16	-2
COc1cccc(NC(=O)c2oc3ccccc3c2NC(C)=O)c1	8	14	-51	68	-23	7
Cc1ccc(S(=O)(=O)Nc2ccc3c(c2)CC(=O)N([C@H](C)CO)C[C@H](C)[C@H](CN(C)S(C)(=O)=O)O3)cc1	1[16.7 µM]	/	/	/	3	-1
O=C(CCl)Nc1cn(-c2ccccc2)nc1-c1ccccc1	/	11	74*	-73	-20	16
O=C(CCl)Nc1ccc(N=Nc2ccccc2)cc1	-2	22	4	0	-5	-101
O=C(CCl)Nc1ccc(-c2ccccc2)cc1	-8	-1	65*	-63	/	-21
COc1cccc(NC(=O)c2ccc(C(=O)c3ccccc3)o2)c1	3	37*	-85	?	-3	12

High-throughput results from PubChem.
